Measured values from PMC6062497 (Oncogene, 2018).

Biological target: T1, TRAIL-R2 (human (endogenous in SK-Mel-3 and …, UniProt O14763))
T1 construct: TRAIL-R2, death receptor on the surface of the melanoma cell line SK-Mel-3 and the colorectal cancer cell line HCT116; also called TNF-related apoptosis-inducing receptor 2; TRAIL DR
Assay: equilibrium binding of Gaussia princeps luciferase fusion proteins to cells (luminescence); SK-Mel-3 cells in 24-well plates; increasing concentrations of the GpL fusion protein for 1 h at 37 °C; non-specific binding taken from cells pre-incubated with an excess of conventional TRAIL or conatumumab; one site specific binding model; isotonic and hypertonic conditions

B1: GpL-FLAG-conatumumab (antibody, V domains shown)
VH: QVQLQESGPGLVKPSQTLSLTCTVSGGSISSGDYFWSWIRQLPGKGLEWIGHIHNSGTTYYNPSLKSRVTISVDTSKKQFSLRLSSVTAADTAVYYCARDRGGDYYYGMDVWGQGTTVTVSS
VL: EIVLTQSPGTLSLSPGERATLSCRASQGISRSYLAWYQQKPGQAPSLLIYGASSRATGIPDRFSGSGSGTDFTLTISRLEPEDFAVYYCQQFGSSPWTFGQGTKVEIK
binding result: binds
